The chains behind the UniProt entries cited, without tags or fusion partners. Residues count along the entry.
ATIII-fondaparinux complex (human antithrombin III with fondaparinux bound) (human), P01008, UniProt P01008, 33-464 limits assumed: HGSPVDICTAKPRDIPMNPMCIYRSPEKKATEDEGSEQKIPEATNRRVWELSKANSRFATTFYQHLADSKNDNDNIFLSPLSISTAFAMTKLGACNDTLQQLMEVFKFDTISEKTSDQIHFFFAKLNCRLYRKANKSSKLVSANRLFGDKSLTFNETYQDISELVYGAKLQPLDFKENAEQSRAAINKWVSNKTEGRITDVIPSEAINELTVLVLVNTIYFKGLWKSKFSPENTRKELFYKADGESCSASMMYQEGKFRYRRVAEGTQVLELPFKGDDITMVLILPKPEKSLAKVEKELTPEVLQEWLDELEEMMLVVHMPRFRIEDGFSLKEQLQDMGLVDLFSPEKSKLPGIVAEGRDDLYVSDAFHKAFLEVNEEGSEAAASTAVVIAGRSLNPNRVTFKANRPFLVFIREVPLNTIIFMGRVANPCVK

In patent publication US20180185459A1:

Target: ATIII-fondaparinux complex (human antithrombin III with fondaparinux bound) (human), P01008
Assay: kinetic analysis (Dynafit) of fXa inhibition curves with a series of ATIII-fondaparinux and PRT064445 concentrations, purified human proteins
Settings: remark: other sources report otherwise

Kd: 53 nM
B1: r-Antidote (processed two-chain polypeptide, human factor Xa triple mutant after removal of the -RKRRKR- linker), P00742 80-179; P00742 235-488 (protein)
chain 1: ANSFLFWNKYKDGDQCETSPCQNQGKCKDGLGEYTCTCLEGFEGKNCELFTRKLCSLDNGDCDQFCHEEQNSVVCSCARGYTLADNGKACIPTGPYPCGKQTLER
chain 2: IVGGQECKDGECPWQALLINEENEGFCGGTILSEFYILTAAHCLYQAKRFKVRVGDRNTEQEEGGEAVHEVEVVIKHNRFTKETYDFDIAVLRLKTPITFRMNVAPACLPERDWAESTLMTQKTGIVSGFGRTHEKGRQSTRLKMLEVPYVDRNSCKLSSSFIITQNMFCAGYDTKQEDACQGDAGGPHVTRFKDTYFVTGIVSWGEGCARKGKYGIYTKVTAFLKWIDRSMKTRGLPKAKSHAPEVITSSPLK
modifications: here or on the partner: non-covalently bound fondaparinux (synthetic pentasaccharide)
